Data taken from US20210228680A1 (ONCOIMMUNE, published 2021).

Molecular target: T1, control Fc
T1 construct: Control protein in the Biacore, pull-down and spleen cell experiments
Assay: Biacore (SPR): control Fc as the immobilised comparison surface, Siglec-10Fc as analyte; value printed under the KD of CD24Fc
Method: To measure the interaction between CD24Fc and Siglec 10, we immobilized CD24Fc onto a CHIP and used Biacore to measure the binding of different concentrations of Siglec-10Fc. […] To determine whether CD24Fc is an agonist of Siglec G, the mouse counterpart of human Siglec 10, we stimulated CD24-/- spleen cells with CD24Fc, control Fc or vehicle (PBS) control for 30 minutes. Siglec G was then immunoprecipitated and probed with anti-phospho-tyrosine or anti-SHP-1.

Kd: 16.2 µM
B1: Siglec-10Fc (Fc fusion, human, UniProt Q96LC7 17-546, looked up)
chain: MDGRFWIRVQESVMVPEGLCISVPCSFSYPRQDWTGSTPAYGYWFKAVTETTKGAPVATNHQSREVEMSTRGRFQLTGDPAKGNCSLVIRDAQMQDESQYFFRVERGSYVRYNFMNDGFFLKVTALTQKPDVYIPETLEPGQPVTVICVFNWAFEECPPPSFSWTGAALSSQGTKPTTSHFSVLSFTPRPQDHNTDLTCHVDFSRKGVSAQRTVRLRVAYAPRDLVISISRDNTPALEPQPQGNVPYLEAQKGQFLRLLCAADSQPPATLSWVLQNRVLSSSHPWGPRPLGLELPGVKAGDSGRYTCRAENRLGSQQRALDLSVQYPPENLRVMVSQANRTVLENLGNGTSLPVLEGQSLCLVCVTHSSPPARLSWTQRGQVLSPSQPSDPGVLELPRVQVEHEGEFTCHARHPLGSQHVSLSLSVHYSPKLLGPSCSWEAEGLHCSCSSQASPAPSLRWWLGEELLEGNSSQDSFEVTPSSAGPWANSSLSLHGGLSSGLRLRCEAWNVHGAQSGSILQLPDKKGLIST
notes: The construct is named only as Siglec-10Fc; not shown: Fc part of Siglec-10Fc
